From PubChem BioAssay AID1259422 (The Scripps Research Institute Molecular Screening Center, 2018)
Only a part is listed here, and it is no random draw. Some results for these compounds are left out of this collection, so the calls shown say nothing about other tests. Activity calls are given as the source filed them. Cut-off read from the data, not from the text of the source: active = inhibition above about 32%; inactive = the rest.

test: TEAD-YAP interaction inhibition, primary screen, TEAD-YAP interaction inhibitor project, luminescence, HEK-TIYL cells (AID 1259422); settings: TEAD-Gal4/YAP UAS-luciferase luminescence, at 9.12 µM, hits give high values;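 note: 0% = median of test compound wells and 100% = reference inhibitor wells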

Q: For CC(CCN(C)C)OC(=O)C(O)(c1ccccc1)c1ccccc1 (stereo not given), which inhibition is on record?
A: Its inhibition is inactive: -1.69%.

Q: Which inhibition does the source give for CN(C)C1(CNC(=O)c2n[nH]c3ccccc23)CCCCC1 here?
A: The inhibition was inactive: 4.65%.

Q: For CN(C)C1CCCC1OC(=O)C(O)(c1ccccc1)c1ccccc1 (stereo not given), which inhibition is on record?
A: Its inhibition is inactive: 0.26%.

Q: Which inhibition does the source give for CN(C)c1ccc(C(=O)NCC2(N(C)C)CCCCC2)cc1 here?
A: The inhibition was inactive: 0.46%.

Q: For COc1ccc(C(=O)NCC2(N(C)C)CCCCC2)cc1, which inhibition is on record?
A: The inhibition was inactive: -6.37%.

Q: With CC(C)N(CCOC(=O)C(O)(c1ccccc1)c1ccccc1)C(C)C as the compound, how does the inhibition read?
A: The inhibition was inactive: -2.27%.

Q: For O=C(NCC1(N2CCOCC2)CCCCC1)c1cnc(Cl)c(Cl)c1, which inhibition is on record?
A: Its inhibition is inactive: 0.75%.

Q: Which inhibition does the source give for CN1CCCC(COC(=O)C(O)(c2ccccc2)c2ccccc2)C1 (stereo not given) here?
A: Its inhibition is inactive: -13.1%.

Q: Which inhibition does the source give for COc1cc(SC)ccc1C(=O)NCC1(N(C)C)CCCCC1 here?
A: Its inhibition is inactive: -9.03%.

Q: Which inhibition does the source give for CN(C)C1(CNC(=O)c2c(F)cccc2F)CCCCC1 here?
A: Its inhibition is inactive: -0.9%.

Q: Which inhibition does the source give for CC(C)Oc1ccc(C(=O)NCC2(N(C)C)CCCCC2)cc1 here?
A: Its inhibition is inactive: 0.54%.

Q: For CN(C)c1cccc(C(=O)NCC2(N(C)C)CCCCC2)c1, which inhibition is on record?
A: The inhibition was inactive: 1.91%.

Q: With CN1C2CCC1CC(OC(=O)C(O)(c1ccccc1)c1ccccc1)C2 (stereo not given) as the compound, how does the inhibition read?
A: Its inhibition is inactive: -10.1%.

Q: For COc1cccc(C(=O)NCC2(N3CCCCC3)CCCCC2)c1, which inhibition is on record?
A: Its inhibition is inactive: 1.65%.

Q: Which inhibition does the source give for COc1ccc(Cl)cc1C(=O)NCC1(N(C)C)CCCCC1 here?
A: The inhibition was inactive: -7.92%.
